“Also recorded” adds a separate entry of the source.
Tests used:
[1] = tested on: asthmatic bronchial epithelial cells; test: Apoptosis by Annexin-V/7-AAD flow cytometry in asthmatic BECs; format: cell-based, human; details: IFN-β plus poly(I):poly(C), regimen not specified
IFN-β mRNA = IFN-β mRNA induction in RV-16 infected BECs from a COPD patient, RT-qPCR; format: cell-based, human; details: RV-16 (2 moi), exogenous IFN-β, 8 hours
Description: IFN-β mRNA was measured by reverse transcription quantitative PCR and normalised to IFN-β levels in untreated (SFM) controls.
Analysis of gene expression for IL-8, TNFα, ICAM-1, IFNβ and RV was carried out using RNA extracted from BECs using TRIzol reagent (Life Technologies, Paisley, UK); contaminating DNA was removed by deoxyribonuclease digestion on RNeasy Mini Kits (Qiagen, Crawley, West Sussex, UK) in accordance with manufacturer's instructions. Total RNA (1 μg) was reverse transcribed using random hexamers or oligo (dT)15 primers and avian myeloblastosis virus transcriptase from the Reverse Transcription System (Promega, Southampton, UK), following the manufacturer's protocol. […]
Housekeeping gene primers and probe for 18S ribosomal RNA was obtained from Eurogentech (Eurogentech, Southampton, UK). […] Quantitation and real-time detection of the PCR were followed on the on icycler sequence detection system, and after completion of the PCR, the thresholds for fluorescence emission baseline were set just above background levels on the FAM and VIC layers (˜15 to 20 cycles). Standard curves were calculated from the delta CT and were constructed for target genes and the 18S rRNA endogenous control, and the amount of target and endogenous control were calculated. […]

RV-16 [2] = test: RV-16 replication in BECs from a COPD patient, HeLa cell titration assay; format: cell-based, rhinovirus; details: RV-16 (2 moi), exogenous IFN-β (100IU/ml)
Description: Cells were infected with RV-16 (2 moi) in the absence or presence of exogeneous IFN-β (100IU/ml). Virion production was measured as TCID50/ml by HeLA cell titration assay.
(§1) RV titration was performed by exposing confluent monolayers of HeLa cells in 96-well plates to serial 10-fold dilutions of viral stock and cultured for 5 days at 37° C. in 5% CO2. Cytopathic effect was assessed and the tissue culture infective dose of 50% (TCID50/ml) was then determined and the multiplicity of infection (MOI) derived (Papi and Johnston, J Biol Chem, 1999; 274: 9707-9720). As a negative control for all experiments RV-16 was inactivated by exposure to UV irradiation at 1200 μJ/cm^2 UV light for 30 minutes. Inactivation was confirmed by repeating viral titrations in HeLa cells.
Chronic obstructive pulmonary disease is another example of an inflammatory airways disease in which the common cold virus causes exacerbations (Seemungal T A, Harper-Owen R, Bhowmik A, Jeffries D J, Wedzicha J A. Detection of rhinovirus in induced sputum at exacerbation of chronic obstructive pulmonary disease. Eur Respir J. (2000) 16, 677-83)_with those affected frequently requiring_hospitalization (MacNee W. Acute exacerbations of COPD. Swiss Med. Wkly. (2003) May 3; 133 (17-18):247-57). […]

BEAS2B cells [3] = test: Induction of pro-inflammatory cytokines in BEAS2B cells; format: cell-based, human
Description: FIG. 20. IFNλs induce pro-inflammatory cytokines by themselves in a dose responsive manner and markedly enhance induction of pro-inflammatory cytokines in response to rhinovirus 16 expression, again in a dose responsive manner. These properties are observed in BEAS2B cells and indicate that IFNλs augment responses likely to recruit other inflammatory cells to virus infected epithelium.

RV-16 [4] = test: RV-16 viral yield from asthmatic BECs, HeLa titration assay of supernatant; format: cell-based, rhinovirus; details: for viral yield, median log TCID50: supernatant after 48 h, RV-16 alone 3.56
Description: Cells were also treated alone or following infection with the major group RV-16. After infection cells were also treated with the caspase 3 inhibitor ZVD-fmk at 120 μM (Calbiochem, La Jolla, Calif., USA) and human IFNβ at 100IU (Sigma Chemical St Louis Mo., USA).
as §1
The desired concentration of RV-16 was applied to cells that were gently shaken at 150 rpm at room temperature for 1 hour. The medium was then removed and the wells washed twice with 1 ml Hanks Balanced Salt Solution. […] As negative controls cells were treated with medium alone and UV inactivated RV-16.
Confirmation of infection of epithelial cells and quantification of viral production was assessed by HeLa titration assay (Papi and Johnston, J Biol Chem, 1999; 274: 9707-9720) and quantitative reverse transcription polymerase chain reaction (qPCR), as described below.

BEAS2B cells [5] = test: Induction of type I and type III interferons in BEAS2B cells; format: cell-based, human
Description: FIG. 19. […] There is thus positive feedback between type 1 and type III interferon sub-types.

IFN-β: human IFNβ at 100IU (Sigma Chemical St Louis Mo., USA), exogenous type I interferon
induction of apoptosis in response to synthetic poly(I):poly(C) [1]: marked induction of apoptosis | induction of IFN-β mRNA (IFN-β mRNA): vigorous induction | RV-16 replication, virion production as TCID50 (RV-16 [2]): one hundred fold reduction; also recorded: reduced | induction of pro-inflammatory cytokines by the interferon itself (BEAS2B cells [3]; no virus): the same | induction of pro-inflammatory cytokines in response to rhinovirus 16 (BEAS2B cells [3]; with rhinovirus 16): the same | viral yield, median log TCID50 (RV-16 [4]; asthmatic BECs pre-treated with IFNβ (100IU) for 12 h): 1.12 (0.28, 1.34) | viral yield, median log TCID50 (RV-16 [4]; asthmatic BECs treated with IFNβ (100IU) immediately following infection): 2.78 (2, 3.56) | RV-16 infectious virion production (RV-16 [4]; asthmatic BECs, IFN-β, regimen not specified): significant reduction | induction of IFNλ-1, IFNλ2-3 and interferon β (BEAS2B cells [5]): induces itself as well as inducing both IFNλ-1 and IFNλ 2-3
